This note sets out measurements from BindingDB's records for doi:10.1016/j.bmc.2003.11.015 (Bristol-Myers Squibb Pharmaceutical Research Institute, 2004).

By UniProt entry, the sequences of proteins in these tests, tags left out.
UniProt P61169, whole entry: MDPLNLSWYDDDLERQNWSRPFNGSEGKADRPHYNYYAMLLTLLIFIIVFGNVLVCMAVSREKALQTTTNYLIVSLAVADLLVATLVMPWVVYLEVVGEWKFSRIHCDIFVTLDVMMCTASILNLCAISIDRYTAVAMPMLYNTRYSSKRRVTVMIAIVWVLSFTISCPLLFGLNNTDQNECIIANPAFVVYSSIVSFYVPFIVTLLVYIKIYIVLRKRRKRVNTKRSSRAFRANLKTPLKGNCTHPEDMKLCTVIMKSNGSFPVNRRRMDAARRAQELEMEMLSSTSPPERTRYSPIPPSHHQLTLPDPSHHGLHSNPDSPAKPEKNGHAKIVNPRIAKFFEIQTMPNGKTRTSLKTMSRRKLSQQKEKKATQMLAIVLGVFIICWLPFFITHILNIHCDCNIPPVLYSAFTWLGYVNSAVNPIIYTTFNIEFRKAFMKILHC
UniProt P18901, whole entry: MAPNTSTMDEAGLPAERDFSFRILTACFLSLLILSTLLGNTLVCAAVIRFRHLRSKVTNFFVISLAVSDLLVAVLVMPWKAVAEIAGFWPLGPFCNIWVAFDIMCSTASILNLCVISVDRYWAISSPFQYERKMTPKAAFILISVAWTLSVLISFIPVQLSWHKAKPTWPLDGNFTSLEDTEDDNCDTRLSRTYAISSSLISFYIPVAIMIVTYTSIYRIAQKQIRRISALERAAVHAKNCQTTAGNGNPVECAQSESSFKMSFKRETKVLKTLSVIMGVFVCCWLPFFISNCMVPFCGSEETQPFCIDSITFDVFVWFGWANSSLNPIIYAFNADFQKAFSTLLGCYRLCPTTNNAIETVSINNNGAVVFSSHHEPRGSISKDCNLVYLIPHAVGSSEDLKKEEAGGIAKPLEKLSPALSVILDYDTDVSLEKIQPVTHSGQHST

One test concerns the target D(2) dopamine receptor (Rattus norvegicus, UniProt P61169).
The target in another test is D(1A) dopamine receptor (Rattus norvegicus, UniProt P18901).

As usually defined, the Ki is a dissociation constant, usually derived from enzyme kinetics or from competition with a known ligand. For the compound `Oc1ccc2c(c1O)Cc1cccc3c1[C@@H]2CNC3`, the values for the Ki on D(2) dopamine receptor and at D(1A) dopamine receptor were 1500 nM and 5300 nM, respectively.

With `Oc1ccc2c(c1O)Cc1cccc3c1C2CNC3` (stereo not drawn) [Dinapsoline, (+/-)], the Ki on D(2) dopamine receptor was 56 nM; at D(1A) dopamine receptor, 67 nM.

As to `Oc1ccc2c(c1O)Cc1cccc3c1[C@H]2CNC3` [Dinapsoline, (R)(+)], the Ki at D(2) dopamine receptor amounted to 38 nM; at D(1A) dopamine receptor, 33 nM.
